Measurements from patent publication US11660306B2, “Treatment of Rett syndrome” (Cold Spring Harbor Laboratory, priority 2014, dated 2023).

Chains of the proteins cited; added tags and fusions are not shown.
UniProt P18031, whole entry: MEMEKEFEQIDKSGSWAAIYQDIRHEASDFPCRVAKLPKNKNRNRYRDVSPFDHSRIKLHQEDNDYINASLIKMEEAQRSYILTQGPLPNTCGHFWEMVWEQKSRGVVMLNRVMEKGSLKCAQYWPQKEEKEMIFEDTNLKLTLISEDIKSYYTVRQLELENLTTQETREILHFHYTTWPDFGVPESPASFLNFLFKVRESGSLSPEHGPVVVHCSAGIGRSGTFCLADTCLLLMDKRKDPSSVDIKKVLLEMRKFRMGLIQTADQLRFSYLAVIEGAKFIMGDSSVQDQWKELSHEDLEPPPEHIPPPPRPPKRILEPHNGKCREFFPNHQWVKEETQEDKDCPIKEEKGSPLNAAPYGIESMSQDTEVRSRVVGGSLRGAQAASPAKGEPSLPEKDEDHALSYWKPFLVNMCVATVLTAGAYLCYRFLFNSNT

Assays:
Type in all cases: biochemical
PTP1B = assay: Reversibility of PTP1B inhibition by triterpenes (Table 2)
PTP1B321 = PTP1B321 (Homo sapiens, UniProt P18031); assay: Triterpene inhibition of PTP1B321 (Table 2); conditions: read-out: Ki (μM), PTP1B321
PTP1B405 = PTP1B405 (Homo sapiens, UniProt P18031); assay: Triterpene inhibition of PTP1B405 (Table 2); conditions: read-out: Ki (μM), PTP1B405

In the case of `CC1(C)OC2CC(=O)OCC23C1CC(=O)C1(C)C3CCC2(C)C(c3ccoc3)OC(=O)C3OC321` (stereo not drawn), the Reversibility (PTP1B) is reported as “Reversible”, the Ki (PTP1B321) is reported as 9 µM and the Ki (PTP1B405) is reported as 6 µM.
